Values after ≈ are worked out from the molar mass of the structure shown.
System: Staphylococcus aureus Rosenbach (ATCC 25923)
Assay: Antibacterial microbroth dilution MIC/MBC against S. aureus
Assay type: cell-based
Experimental: The minimum inhibition concentration (MIC) and the minimum bactericidal/fungicidal concentration (MBC/MFC) were carried out using the microbroth dilution method according to the Clinical Laboratory Standards Institute (CLSI) guidelines, with some modifications. […] The tested compounds were then incubated together with bacterial cells at 37 °C for 24 h and with fungal spores at 25 °C for 72 h, respectively. The OD600 measurements were subsequentially carried out to evaluate the inhibitory effect of the compounds. To further determine the bactericidal and fungicidal effects of the compounds, 5 µL of the treated culture was transferred onto new media microplates. The plates were incubated under the same condition, followed by the OD600 measurement. […] The cells were then treated with the compounds for 72 h at 37 °C in the presence of 5% CO2. Any Cytotoxic effect was detected with PrestoBlue™ cell viability reagent (ThermoFisher Scientific, Waltham, MA, USA). The cells were read with a fluorescence reading at an excitation of 560 nm and an emission 590 nm. Standard inhibitors, gentamicin (Gibco, Waltham, MA, USA), amphotericin (Sigma-Aldrich, St. Louis, MO, USA) and puromycin (Sigma-Aldrich, St. Louis, MO, USA) were used as the assay controls for the antibacterial, antifungal and cytotoxicity assay. […]

Compound: CNC(=O)C[C@@H]1NC(=O)c2csc(n2)-c2ccc(-c3nc(C(=O)N[C@@H](CO)C(=O)N4CCC[C@H]4C(N)=O)cs3)nc2-c2csc(n2)-c2csc(n2)[C@H]([C@@H](O)c2ccccc2)NC(=O)CNC(=O)c2nc(sc2COC)[C@H](C(C)C)NC(=O)c2nc1sc2C [Compound 6]
- MBC (ATCC25923, S. aureus Rosenbach ATCC 25923, treated culture transferred to new media, OD600, mean ± SD, triplicates, read-out: MBC90 [(μM) mean ± SD]): 31.8 ± 1.38 µM (≈ 41.6 µg/mL)
- MBC90 (minimal bactericidal concentration) (ATCC25923, read-out: MBC (IC90) / minimal bactericidal concentration (MBC90)): 31.8 µM (≈ 41.6 µg/mL)

Reference: paper PMC9822014, “Antibacterial Thiopeptide GE2270-Congeners from Nonomuraea jiangxiensis” (Molecules, 2022)
